This experiment has as its target human histamine H3 receptor (Homo sapiens, UniProt Q9Y5N1). The experiment in a line: [3H]-N-methylhistamine binding. As to conditions: membranes of histamine H3 receptor-expressing SK-N-MC cells; 0.8 nM [3H]-N-methylhistamine; 45 min at 25° C.

Chains of the proteins cited; added tags and fusions are not shown. Lines headed by an entry give the natural chain unless they say otherwise; changes in a name come on top.
UniProt Q9Y5N1: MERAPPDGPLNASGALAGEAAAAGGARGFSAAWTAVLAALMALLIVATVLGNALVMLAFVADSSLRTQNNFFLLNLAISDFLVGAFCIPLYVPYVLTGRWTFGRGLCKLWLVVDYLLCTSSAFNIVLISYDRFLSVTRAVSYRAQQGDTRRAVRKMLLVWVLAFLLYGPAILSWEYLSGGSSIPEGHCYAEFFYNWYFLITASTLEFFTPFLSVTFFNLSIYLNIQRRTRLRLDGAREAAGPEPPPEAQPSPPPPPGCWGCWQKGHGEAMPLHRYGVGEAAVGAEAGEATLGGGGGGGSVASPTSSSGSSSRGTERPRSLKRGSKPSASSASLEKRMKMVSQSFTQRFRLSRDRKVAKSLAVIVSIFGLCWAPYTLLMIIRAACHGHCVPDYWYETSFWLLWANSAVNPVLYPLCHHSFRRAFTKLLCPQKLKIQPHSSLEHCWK

The Ki is the equilibrium dissociation constant of an inhibitor or competing ligand from its target. A higher Ki goes with lower affinity.

For the compound `O=c1[nH]c2ccccc2n1C1CCN(Cc2cccc(C#CCCN3CCCCC3)c2)CC1`, the inhibition constant Ki was 1 nM.
